Sequences of proteins named here, by UniProt entry; tags and fusion partners are left off.
UniProt Q9UHD2, whole entry: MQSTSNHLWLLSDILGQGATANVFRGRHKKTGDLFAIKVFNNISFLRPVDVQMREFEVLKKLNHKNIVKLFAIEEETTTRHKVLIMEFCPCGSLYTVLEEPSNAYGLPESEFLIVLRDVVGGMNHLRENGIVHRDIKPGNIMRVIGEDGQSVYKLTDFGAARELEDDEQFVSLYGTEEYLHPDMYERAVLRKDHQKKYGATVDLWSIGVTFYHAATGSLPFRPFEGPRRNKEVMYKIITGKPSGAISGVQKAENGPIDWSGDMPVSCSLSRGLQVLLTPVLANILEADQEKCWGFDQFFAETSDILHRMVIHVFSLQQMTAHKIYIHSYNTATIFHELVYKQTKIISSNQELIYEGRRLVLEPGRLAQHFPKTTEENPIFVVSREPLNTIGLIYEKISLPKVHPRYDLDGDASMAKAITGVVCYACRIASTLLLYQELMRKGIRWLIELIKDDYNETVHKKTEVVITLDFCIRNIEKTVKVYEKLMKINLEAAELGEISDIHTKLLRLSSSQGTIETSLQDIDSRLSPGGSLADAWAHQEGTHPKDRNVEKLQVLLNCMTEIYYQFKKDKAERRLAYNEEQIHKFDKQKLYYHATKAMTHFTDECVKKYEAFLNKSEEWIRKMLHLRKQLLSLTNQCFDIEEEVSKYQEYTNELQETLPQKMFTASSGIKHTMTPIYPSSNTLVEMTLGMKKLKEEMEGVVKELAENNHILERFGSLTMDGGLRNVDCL

According to US10946017B2, “Tank-binding kinase-1 PROTACs and associated methods of use” (Arvinas Operations, Inc., priority 2015, dated 2021):

Molecular target: TBK1 (Homo sapiens (Human), UniProt Q9UHD2)
Assay: In vitro TBK1 degradation assay, Panc02.13 cells (compounds 3-33), immunoblot
Conditions: read-out: DC50 (concentration at which 50% degradation is observed), 16 h, mean of ≥ 2 determinations

In the case of `Cc1ncsc1-c1ccc(CNC(=O)[C@@H]2C[C@@H](O)CN2C(=O)[C@@H](NC(=O)COCCOCCOc2ccc(Nc3ncc(Br)c(NCCCN(C)C(=O)C4CCC4)n3)cc2)C(C)(C)C)cc1`, the DC50 was > 1 µM.
With `Cc1ncsc1-c1ccc(CNC(=O)[C@@H]2C[C@@H](O)CN2C(=O)[C@@H](NC(=O)COCCCCOc2ccc(Nc3ncc(Br)c(NCCCN(C)C(=O)C4CCC4)n3)cc2)C(C)(C)C)cc1` the DC50 was > 1 µM.
